# Data from BindingDB's records for doi:10.1016/0014-2999(95)00786-5 (Cnrs Upr 9023, 1996).
# The chains behind the UniProt entries cited, without tags or fusion partners. Where a name states a change or a piece, a line headed by the entry shows the natural chain unless it says otherwise.
# UniProt Q13639: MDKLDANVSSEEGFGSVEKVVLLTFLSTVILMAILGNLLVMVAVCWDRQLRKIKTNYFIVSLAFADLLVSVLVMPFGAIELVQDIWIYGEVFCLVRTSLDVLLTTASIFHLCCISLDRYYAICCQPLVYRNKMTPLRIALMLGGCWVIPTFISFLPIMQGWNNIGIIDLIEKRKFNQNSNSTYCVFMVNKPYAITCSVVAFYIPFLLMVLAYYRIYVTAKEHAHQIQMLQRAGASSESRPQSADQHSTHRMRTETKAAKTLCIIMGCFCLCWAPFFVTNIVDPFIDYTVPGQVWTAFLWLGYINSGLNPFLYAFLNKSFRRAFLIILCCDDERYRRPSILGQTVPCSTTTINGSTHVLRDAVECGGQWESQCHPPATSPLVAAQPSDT
# Target: 5-hydroxytryptamine receptor 4 (Homo sapiens, UniProt Q13639)
smiles,measurement,value
COc1cc(N)c(Cl)cc1C(=O)NC1CCN2CCCC1C2 (stereo unspecified) [NSC_3035240],Ki,251 nM
